Where two headings read alike, the source gives them in different places.
Assays:
[1] = Pharmacodynamic duration of action; settings: dose 100 μg/kg i.v.
ORL1 [2] = target: T1, ORL1 (Homo sapiens, UniProt P41146); assay: ORL1 receptor binding (3H-nociceptin/orphanin FQ, CHO-ORL1 membranes)
human μ-opiate receptor = human μ-opiate receptor (Homo sapiens, UniProt P35372); assay: μ-opioid receptor binding ([3H]-naloxone, CHO-K1 membranes)
rat [3] = assay: Chung model: mononeuropathic pain after spinal nerve ligation; settings: for Pain, rat: neuropathic (SNL [Chung]) ED50: Table 6
rat [4] = assay: Tail-flick test in the rat (acute pain)
rat [5] = assay: Blood gas analysis: arterial pCO2 and pO2 in the rat (respiratory depression); settings: i.v.
mouse [6] = assay: Charcoal passage test: gastrointestinal transit in the mouse; settings: i.v.
μ-Opioid = μ-Opioid (Homo sapiens, UniProt P35372); assay: GTPgammaS assay, μ-Opioid; settings: for EC50: read-out: μ-Opioid EC50
d-Opioid [7] = target: T2, d-Opioid (Homo sapiens, UniProt P41143); assay: GTPgammaS assay, d-Opioid; settings: for EC50: read-out: d-Opioid EC50
k-Opioid [8] = target: T3, k-Opioid (Homo sapiens, UniProt P41145); assay: k-Opioid receptor radio-binding assay; settings: read-out: k-Opioid Ki
k-Opioid [9] = target: T3, k-Opioid; assay: GTPgammaS assay, k-Opioid; settings: for EC50: read-out: k-Opioid EC50
d-Opioid [10] = target: T2, d-Opioid; assay: d-Opioid receptor radio-binding assay; settings: read-out: d-Opioid Ki
ORL1 [11] = target: T1, ORL1; assay: GTPgammaS assay, ORL1; settings: for EC50: read-out: ORL1 EC50
mouse [12] = assay: Tail-flick test in the mouse; settings: at 1000 μg/kg i.v.
mouse [13] = assay: STZ, mouse: diabetic polyneuropathy; settings: at 100 μg/kg i.p.
mouse [14] = assay: Jumping test: physical dependency in the mouse (naloxone-precipitated withdrawal); settings: i.p.
[15] = Half-life t1/2 in the rat; settings: 100 μg/kg, i.v.
rat [16] = assay: Conditioned place preference in the rat (mental dependency); settings: i.p.
mouse [17] = assay: RotaRod test: motor coordination in the mouse; settings: i.v.
rabbit = assay: Cardiovascular parameters: blood pressure and cardiac frequency in the awake rabbit; settings: i.v.
[18] = read-out: Ki (ORL1), binding affinity
[19] = read-out: Ki (μ), binding affinity
[20] = read-out: ORL1 Ki, radio-binding assay (Table 6)
[21] = read-out: μ-Opioid Ki, radio-binding assay (Table 6)

Protein sequences, listed by entry. Tags and fused reporters are not part of them. Lines headed by an entry give the natural chain unless they say otherwise; changes in a name come on top.
UniProt P41146: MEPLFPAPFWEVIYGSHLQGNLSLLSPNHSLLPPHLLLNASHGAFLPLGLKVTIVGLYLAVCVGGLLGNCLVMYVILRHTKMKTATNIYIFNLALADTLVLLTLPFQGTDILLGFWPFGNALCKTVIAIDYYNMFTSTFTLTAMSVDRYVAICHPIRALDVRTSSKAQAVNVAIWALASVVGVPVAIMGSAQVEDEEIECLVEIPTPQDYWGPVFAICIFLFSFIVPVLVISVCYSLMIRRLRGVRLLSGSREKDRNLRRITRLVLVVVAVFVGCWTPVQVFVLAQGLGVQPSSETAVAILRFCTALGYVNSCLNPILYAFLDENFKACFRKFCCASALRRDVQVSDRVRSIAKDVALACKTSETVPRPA
UniProt P35372, whole entry, looked up: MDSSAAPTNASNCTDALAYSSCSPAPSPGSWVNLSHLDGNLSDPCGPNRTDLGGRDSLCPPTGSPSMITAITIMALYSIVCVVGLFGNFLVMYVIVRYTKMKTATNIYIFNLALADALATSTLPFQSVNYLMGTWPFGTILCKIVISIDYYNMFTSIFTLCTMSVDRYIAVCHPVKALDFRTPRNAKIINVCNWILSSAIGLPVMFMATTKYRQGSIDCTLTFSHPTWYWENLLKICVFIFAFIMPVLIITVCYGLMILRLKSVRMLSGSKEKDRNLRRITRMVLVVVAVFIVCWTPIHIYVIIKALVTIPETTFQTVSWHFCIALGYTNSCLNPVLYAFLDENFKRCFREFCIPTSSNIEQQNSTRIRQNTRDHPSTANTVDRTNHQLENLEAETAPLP
UniProt P41143, whole entry, looked up: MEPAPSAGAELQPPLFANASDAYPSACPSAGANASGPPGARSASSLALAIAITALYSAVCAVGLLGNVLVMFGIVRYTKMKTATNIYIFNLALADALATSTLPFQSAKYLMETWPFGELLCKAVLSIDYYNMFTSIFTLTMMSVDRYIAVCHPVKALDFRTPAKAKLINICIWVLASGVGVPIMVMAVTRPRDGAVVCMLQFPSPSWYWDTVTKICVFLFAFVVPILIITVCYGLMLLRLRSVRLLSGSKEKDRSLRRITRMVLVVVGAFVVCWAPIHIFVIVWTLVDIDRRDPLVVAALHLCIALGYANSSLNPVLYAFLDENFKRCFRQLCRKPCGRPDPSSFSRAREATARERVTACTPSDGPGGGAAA
UniProt P41145: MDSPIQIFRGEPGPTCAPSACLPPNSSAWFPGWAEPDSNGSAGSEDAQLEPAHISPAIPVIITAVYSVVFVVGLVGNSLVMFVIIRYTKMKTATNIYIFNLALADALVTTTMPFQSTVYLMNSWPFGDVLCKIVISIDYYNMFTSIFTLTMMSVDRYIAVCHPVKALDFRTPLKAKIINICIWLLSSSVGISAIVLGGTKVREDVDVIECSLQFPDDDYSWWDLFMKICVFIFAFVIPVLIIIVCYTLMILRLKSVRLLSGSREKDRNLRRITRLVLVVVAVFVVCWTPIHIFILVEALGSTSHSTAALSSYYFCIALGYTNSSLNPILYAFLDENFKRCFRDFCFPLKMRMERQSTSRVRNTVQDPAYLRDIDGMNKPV

## CN(C)[C@]1(c2cccc(F)c2)CC[C@]2(CC1)c1[nH]c3ccccc3c1CCN2C(=O)Cc1ccc(F)cc1
[1]
  pharmacodynamic duration of action: 1 to 3 h
ORL1 [2]; [18]
  Ki: 3 nM
Human μ-opiate receptor; [19]
  Ki: 9 nM
Rat [3]; at 100 μg/kg i.v.
  Chung, rat % MPE: 20% MPE
Rat [4]; i.v.
  Tail-flick, rat NOEL: > 0.1 mg/kg
Rat [5]
  Blood gas analysis, rat NOEL: 0.3 mg/kg

## CN(C)[C@]1(c2cccc(F)c2)CC[C@]2(CC1)c1[nH]c3ccccc3c1CCN2C(=O)Cc1ccc(Cl)cc1
[1]
  pharmacodynamic duration of action: about 3 h
Mouse [6]
  Charcoal passage, mouse NOEL: 4.6 mg/kg
ORL1 [2]; [18]
  Ki: 17 nM
Human μ-opiate receptor; [19]
  Ki: 50 nM
Rat [3]; at 100 μg/kg i.v.
  Chung, rat % MPE: 35% MPE
Rat [4]; i.v.
  Tail-flick, rat NOEL: > 1 mg/kg

## CN(C)[C@]1(c2cccc(F)c2)CC[C@]2(CC1)NCCc1c3ccccc3[nH]c12
Rat [3]; at 30 μg/kg i.v.
  Chung, rat % MPE: 27% MPE at
Rat [4]; at 100 μg/kg i.v.
  Tail-flick, rat % MPE: 60% MPE at

## CN(C)[C@]1(c2cccc(F)c2)CC[C@@]2(CC1)c1[nH]c3ccccc3c1CCN2C(=O)/C=C/c1ccccc1
μ-Opioid
  μ-Opioid relative efficacy: 97%
  EC50: 79 nM
ORL1 [2]; [18]
  Ki: 2 nM
ORL1 [2]; [20]
  Ki: 3 nM
d-Opioid [7]
  d-Opioid relative efficacy: 126%
  EC50: 19 nM
Human μ-opiate receptor; [19]
  Ki: 8 nM
Human μ-opiate receptor; [21]
  Ki: 8 nM
Rat [3]
  Pain, rat: neuropathic (SNL [Chung]) ED50: 0.4 mg/kg
Rat [3]; i.v.
  Chung, rat NOEL: NOEL ≧ 100 μg/kg
k-Opioid [8]
  Ki: 19 nM
Rat [4]; Table 6
  Pain, rat: Acute (tail flick) ED50: 0.64 mg/kg
Rat [4]; i.v.
  Tail-flick, rat ED50: ED50 = 640 μg/kg i.v.
Rat [5]
  Blood gas analysis, rat NOEL: NOEL = 300 μg/kg i.v.
k-Opioid [9]
  k-Opioid relative efficacy: 88%
  EC50: 59 nM
d-Opioid [10]
  Ki: 6 nM
ORL1 [11]
  ORL1 relative efficacy: 104%
  EC50: 47 nM

## CN(C)[C@]1(c2cccs2)CC[C@@]2(CC1)OCCc1c3ccccc3[nH]c12
Rat [3]; at 100 μg/kg i.v.
  Chung, rat % MPE: 17% MPE at
Mouse [12]
  Tail-flick, mouse % MPE: 78% MPE at

## CN(C)[C@]1(c2ccsc2)CC[C@@]2(CC1)OCCc1c3cc(F)ccc3[nH]c12
Rat [3]; at 100 μg/kg i.v.
  Chung, rat % MPE: 28% MPE at
Rat [4]; at 1000 μg/kg i.v.
  Tail-flick, rat % MPE: 33% MPE at

## COc1ccc(CC(=O)N2CCc3c4ccccc4[nH]c3[C@]23CC[C@](c2cccc(F)c2)(N(C)C)CC3)cc1OC
[1]
  pharmacodynamic duration of action: 3 h//about 3 h
Mouse [6]
  Charcoal passage, mouse NOEL: 1 mg/kg
  Charcoal passage, mouse NOEL (gastrointestinal transit): NOEL: 1 mg/kg i.v.
Mouse [13]
  STZ, mouse: inhibition of neuropathic pain in diabetic polyneuropathy: 68% MPE at 100 μg/kg i.p.;
Mouse [14]
  Jumping test, mouse NOEL (physical dependency/withdrawal symptoms): NOEL: ≧10 mg/kg i.p.
[15]
  t1/2, rat: 3 h//about 3 h
Rat [16]
  Place preference, rat NOEL (mental dependency): NOEL: ≧20 mg/kg i.p.
Mouse [17]
  RotaRod test, mouse NOEL (motor coordination): NOEL: 10 mg/kg i.v.
  RotaRod, mouse NOEL: 10 mg/kg
Rat [3]
  Pain, rat: neuropathic (SNL [Chung]) ED50: 0.088 mg/kg
Rat [3]; i.v., neuropathy models
  ED50^n against neuropathic pain: 0.088 mg/kg
Rat [4]; @ 10000 μg/kg (Table 6)
  Pain, rat: Acute (tail flick) % MPE: 0% MPE
Rat [4]; i.v.
  Tail-flick, rat NOEL (inhibition of acute pain): NOEL: ≧10 mg/kg i.v.
Rat [5]
  Blood gas analysis, rat NOEL (respiratory depression): NOEL: 1 mg/kg i.v.
rabbit
  Cardiovascular/circulatory system, rabbit NOEL (arterial blood pressure and cardiac frequency): NOEL: ≧3 mg/kg i.v.
ORL1 [11]
  ORL1 relative efficacy: 90%
  EC50: 50 nM

## CN(C)[C@]1(c2cccc(F)c2)CC[C@@]2(CC1)c1[nH]c3ccccc3c1CCN2C(=O)c1cc2ccccc2s1
μ-Opioid
  μ-Opioid relative efficacy: 66%
  EC50: 13 nM
ORL1 [2]; [20]
  Ki: 14 nM
d-Opioid [7]
  d-Opioid relative efficacy: 87%
Human μ-opiate receptor; [21]
  Ki: 12 nM
Rat [3]; @ 100 μg/kg (Table 6)
  Pain, rat: neuropathic (SNL [Chung]) % MPE: 20% MPE
k-Opioid [8]
  Ki: 49 nM
Rat [4]; @ 1000 μg/kg (Table 6)
  Pain, rat: Acute (tail flick) % MPE: 0% MPE
k-Opioid [9]
  k-Opioid relative efficacy: 55%
d-Opioid [10]
  Ki: 8 nM
ORL1 [11]
  ORL1 relative efficacy: 81%
  EC50: 16 nM

## CN(C)[C@]1(c2ccccc2)CC[C@]2(CC1)c1[nH]c3ccccc3c1CCN2C(=O)/C=C/c1ccccc1
ORL1 [2]; [18]
  Ki: 18 nM
Human μ-opiate receptor; [19]
  Ki: 32 nM
Rat [3]; at 100 μg/kg i.v.
  Chung, rat % MPE: 18% MPE
Rat [4]; i.v.
  Tail-flick, rat NOEL: > 0.1 mg/kg
Rat [5]
  Blood gas analysis, rat NOEL: 1 mg/kg

## CN(C)[C@]1(c2cccc(F)c2)CC[C@]2(CC1)c1[nH]c3ccccc3c1CCN2C(=O)c1cc2ccccc2s1
[1]
  pharmacodynamic duration of action: about 3 h
μ-Opioid
  μ-Opioid relative efficacy: 82%
  EC50: 1110 nM
Mouse [6]
  Charcoal passage, mouse NOEL: 3 mg/kg
ORL1 [2]; [18]
  Ki: 16 nM
ORL1 [2]; [20]
  Ki: 16 nM
Mouse [17]
  RotaRod, mouse NOEL: ≧10000 μg/kg
d-Opioid [7]
  d-Opioid relative efficacy: 92%
  EC50: 41 nM
Human μ-opiate receptor; [19]
  Ki: 59 nM
Human μ-opiate receptor; [21]
  Ki: 59 nM
Rat [3]
  Pain, rat: neuropathic (SNL [Chung]) ED50: 0.106 mg/kg
Rat [3]; at 100 μg/kg i.v.
  Chung, rat % MPE: 42% MPE
k-Opioid [8]
  Ki: 160 nM
Rat [4]; @ 1000 μg/kg (Table 6)
  Pain, rat: Acute (tail flick) % MPE: 0% MPE
Rat [4]; @ 10000 μg/kg (Table 6)
  Pain, rat: Acute (tail flick) % MPE: 73% MPE
Rat [4]; i.v.
  Tail-flick, rat NOEL: > 1 mg/kg
k-Opioid [9]
  k-Opioid relative efficacy: 42%
  EC50: 874 nM
d-Opioid [10]
  Ki: 6.7 nM
ORL1 [11]
  ORL1 relative efficacy: 92%
  EC50: 102 nM

## COc1ccc(CC(=O)N2CCc3c4ccccc4[nH]c3[C@]23CC[C@@](c2cccc(F)c2)(N(C)C)CC3)cc1OC
Rat [4]; @ 31.6 μg/kg (Table 6)
  Pain, rat: Acute (tail flick) % MPE: 54% MPE
Rat [4]; at 31.6 μg/kg i.v.
  Tail-flick, rat % MPE: 54% MPE at
ORL1 [11]
  ORL1 relative efficacy: 90%
  EC50: 16 nM

Source: patent US20160159787A1, “Cis-tetrahydro-spiro(cyclohexane-1, 1' -pyrido[3,4-b]indole)-4-amine Compounds” (published 2016)
